# Assay results published in patent publication US11111233B2, “Amino pyrimidine compound for inhibiting protein tyrosine kinase activity” (Shenzhen TargetRx, Inc., priority 2016, dated 2021).
# What was measured:
# [1] = test system: lung cancer cells NCI-H1975 (L858R/T790M); assay: Cytotoxicity test (MTS cell viability), NCI-H1975; details: read-out: H1975 (L858R/T790M) IC50
# [2] = test system: Skin cancer cell line A431 (WT); assay: Cytotoxicity test (MTS cell viability), A431; details: read-out: A431 (WT) IC50, 72 hours
# [3] = test system: lung cancer cells HCC827 (Del19); assay: Cytotoxicity test (MTS cell viability), HCC827; format: cell-based; details: read-out: HCC827 (Del19) IC50, 72 hours
Structure (SMILES),"IC50 ([1]; MTS, 72 hours)",IC50 [2],IC50 [3],IC50 [1]
C=CC(=O)Nc1cc(Nc2nccc(-c3cc(F)c4nc(C)n(C(C)C)c4c3)n2)c(OC)cc1N1CCC(OCC)CC1,> 1000 nM,–,–,–
C=CC(=O)Nc1cc(Nc2nccc(-c3cnc4nc(OC)n(C(C)C)c4c3)n2)c(OC)cc1N(C)CCN(C)C,–,400 to 1000 nM,10 to 100 nM,10 to 100 nM

# Where two headings read alike, the source gives them in different places.
